The values below come from patent publication US20240327353A1.

Amino acid sequences for entries named in this document (tags omitted). Residues count along the entry.
UniProt P28335, 33-458: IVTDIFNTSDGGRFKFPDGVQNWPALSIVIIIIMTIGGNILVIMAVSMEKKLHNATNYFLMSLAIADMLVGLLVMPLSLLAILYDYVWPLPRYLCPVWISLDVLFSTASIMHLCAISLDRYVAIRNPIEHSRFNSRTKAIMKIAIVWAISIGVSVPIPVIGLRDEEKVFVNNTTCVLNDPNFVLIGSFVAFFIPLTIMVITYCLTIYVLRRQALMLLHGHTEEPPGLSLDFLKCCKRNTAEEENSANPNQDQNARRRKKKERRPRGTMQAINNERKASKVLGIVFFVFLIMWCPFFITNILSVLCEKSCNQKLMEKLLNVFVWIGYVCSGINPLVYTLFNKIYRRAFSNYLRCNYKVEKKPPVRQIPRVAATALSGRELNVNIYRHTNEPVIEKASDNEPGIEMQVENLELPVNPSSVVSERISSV
UniProt P28223, whole entry D231F: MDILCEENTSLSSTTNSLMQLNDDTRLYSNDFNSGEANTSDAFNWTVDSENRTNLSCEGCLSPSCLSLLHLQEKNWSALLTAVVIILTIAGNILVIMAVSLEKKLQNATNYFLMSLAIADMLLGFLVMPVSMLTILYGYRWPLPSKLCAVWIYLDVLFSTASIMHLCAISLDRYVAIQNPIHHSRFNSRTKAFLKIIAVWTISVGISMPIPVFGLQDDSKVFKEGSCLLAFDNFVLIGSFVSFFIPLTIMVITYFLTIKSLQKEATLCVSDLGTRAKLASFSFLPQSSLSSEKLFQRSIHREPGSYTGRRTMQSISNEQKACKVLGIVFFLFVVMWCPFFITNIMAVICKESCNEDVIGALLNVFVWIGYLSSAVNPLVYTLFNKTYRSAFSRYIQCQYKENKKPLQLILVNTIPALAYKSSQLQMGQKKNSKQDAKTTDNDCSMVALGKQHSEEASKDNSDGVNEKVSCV
UniProt P41595, whole entry: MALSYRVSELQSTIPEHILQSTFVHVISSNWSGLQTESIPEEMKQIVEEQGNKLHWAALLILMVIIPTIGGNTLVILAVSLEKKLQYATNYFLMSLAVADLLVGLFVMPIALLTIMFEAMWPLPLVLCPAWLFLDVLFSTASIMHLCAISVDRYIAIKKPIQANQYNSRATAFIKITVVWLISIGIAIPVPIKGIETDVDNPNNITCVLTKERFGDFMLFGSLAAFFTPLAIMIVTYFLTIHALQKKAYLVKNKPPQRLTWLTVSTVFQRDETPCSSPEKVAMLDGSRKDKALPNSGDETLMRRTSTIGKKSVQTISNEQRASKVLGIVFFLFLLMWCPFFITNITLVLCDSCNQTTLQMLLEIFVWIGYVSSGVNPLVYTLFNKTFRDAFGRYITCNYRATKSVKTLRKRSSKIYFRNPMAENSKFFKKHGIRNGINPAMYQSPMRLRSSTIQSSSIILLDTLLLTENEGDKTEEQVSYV

In one experiment the target is 5-HT2CR (Homo sapiens, UniProt P28335). Description: Radioligand binding (competitive displacement and saturation), cell membranes. To be noted: read-out: Kd of radioligand at 5-HT2C; saturation binding; ± SEM, n=3.
The target of a further experiment is D231F^5.35 5-HT2AR (Homo sapiens, UniProt P28223, D231F). The experiment can be described thus: Exploratory saturation radioligand binding at point-mutated 5-HT2AR. The settings on record: membranes of transfected HEK293 cells (FIGS. 14A-14D).
The target of a further experiment is 5-HT2BR (Homo sapiens, UniProt P41595). The experiment can be described thus: Radioligand binding (competitive displacement and saturation), cell membranes. The settings on record: read-out: Kd of radioligand at 5-HT2B; saturation binding; ± SEM, n=2.

[^3H]Mesulergine [reference compound]: the Kd at 5-HT2CR turned out to be 1 ± 0.17 nM; on 5-HT2BR, 2.82 ± 0.35 nM. On D231F^5.35 5-HT2AR, the “specific binding to D231F^5.35 5-HT2ARs” value is “no specific binding is detected”.
